From US9730926B2, “Combination therapy using bispecific anti-c-Met/anti-EGFR antibody and c-Src inhibitor” (Samsung Electronics Co., Ltd., priority 2014, dated 2017)

Tested on: K-Ras mutated colorectal cancer cell line (Lovo cell line)
Assay: Cell proliferation assay (Cell Counting Kit-8), Lovo cell line
Type: cell-based
Settings: c-Src inhibitor concentration varied, ME22S fixed at 5 μg/ml, FIG. 6, FIG. 7
Method: To examine the cell proliferation inhibition effect depending on the amount of a bispecific anti-c-Met/anti-EGFR antibody, the experiment was carried out by varying the amount of the treated bispecific anti-c-Met/anti-EGFR antibody with fixing the amount of dasatini as 30 nM.
This experiment was conducted referring to the experiment of the cell proliferation test depending on the amount of the antibody as described above, except the amount of the treated antibody and the c-Src inhibitor.

## Cc1nc(Nc2ncc(C(=O)Nc3c(C)cccc3Cl)s2)cc(N2CCN(CCO)CC2)n1 [dasatinib, N-(2-chloro-6-methylphenyl)-2-[[6-[4-(2-hydroxyethyl)-1-piperazinyl]-2-methyl-4-pyrimidinyl]amino]-5-thiazole carboxamide monohydrate, reference compound]
  dose dependence of the synergistic effect by co-treatment with ME22S: generally dose-dependent for the c-Src inhibitor
